The experiment concerns the target OXA-48 (Klebsiella pneumoniae, UniProt Q6XEC0). The experiment is described as follows: In vitro SBL inhibition assay (nitrocefin hydrolysis), IC50. It counts as biochemical. The settings on record: 10 min preincubation, 30°C, read-out: Enzyme IC50. On the procedure:
Nitrocefin (Sigma-Aldrich, St Louis, MO, USA), a chromogenic cephalosporin antibiotic (λ, 482 nm; εM, 15,000 M^−1.cm^−1), was used as a reporter substrate at 100 µM for KPC-2, OXA-23, and OXA-48, at 200 µM for OXA-24 and OXA-51, and at 50 µM for OXA-58. Enzymes were preincubated in the presence of varying concentrations of each compound (0.006 to 3000 nM, diluted twofold in dimethyl sulfoxide (DMSO) for KPC-2, OXA-23, and OXA-48 assays and 0.51 to 10,000 nM diluted threefold in DMSO for OXA-24, OXA-51, and OXA-58) for 10 min at 30°C. Nitrocefin was then added and its hydrolysis by the uninhibited enzyme fraction was followed at an absorbance wavelength of 482 nm for 10 min at 30°C using Envision UV fluorescence plate reader (Perkin Elmer, Waltham, MA, USA). Hydrolysis rate data were used to determine inhibitory activities, expressed in IC50 values [corresponding to the compound concentration (µM) required to inhibit 50% of enzymatic reaction].

Amino acid sequences for entries named in this document (tags omitted). Residues count along the entry.
UniProt Q6XEC0, 23-265, looked up, species assumed: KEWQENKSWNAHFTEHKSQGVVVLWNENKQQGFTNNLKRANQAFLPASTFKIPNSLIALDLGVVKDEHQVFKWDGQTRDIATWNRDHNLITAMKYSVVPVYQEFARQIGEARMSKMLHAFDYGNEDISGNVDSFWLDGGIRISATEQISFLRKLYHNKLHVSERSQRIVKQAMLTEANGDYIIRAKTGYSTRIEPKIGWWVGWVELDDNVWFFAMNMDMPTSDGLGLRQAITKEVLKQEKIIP

Regarding `O=C(NNC(=O)[C@@H]1CC[C@@H]2CN1C(=O)N2OS(=O)(=O)O)[C@@H]1CCCNC1` [Zid, zidebactam], the IC50 is more than 3 µM.

The record behind these values is PMC10916402, “Meropenem-ANT3310, a unique β-lactam-β-lactamase inhibitor combination with expanded antibacterial spectrum against Gram-negative pathogens including carbapenem-resistant Acinetobacter baumannii” (Antimicrobial Agents and Chemotherapy, 2024).
